Measurements taken from publication PMC11860776 (Viruses, 2025).

Target: T1, mIMPα2ΔIBB (Mus musculus, UniProt P52293)
T1 construct: made in house; host or cells: bacteria
Test: AlphaScreen-based binding assay of biotinylated NLS peptides to importin α
Settings: biotinylated NLS peptide

Substance: GACHAtKPRIT [NLS1 NLS mut]
- specific binding to mIMPα2ΔIBB: no specific binding was detected
